From patent publication US20210355166A1, “ANALGESICS AND METHODS OF USE THEREOF” (priority 2018, published 2021)

Chains of the proteins cited; added tags and fusions are not shown.
UniProt P42866, whole entry: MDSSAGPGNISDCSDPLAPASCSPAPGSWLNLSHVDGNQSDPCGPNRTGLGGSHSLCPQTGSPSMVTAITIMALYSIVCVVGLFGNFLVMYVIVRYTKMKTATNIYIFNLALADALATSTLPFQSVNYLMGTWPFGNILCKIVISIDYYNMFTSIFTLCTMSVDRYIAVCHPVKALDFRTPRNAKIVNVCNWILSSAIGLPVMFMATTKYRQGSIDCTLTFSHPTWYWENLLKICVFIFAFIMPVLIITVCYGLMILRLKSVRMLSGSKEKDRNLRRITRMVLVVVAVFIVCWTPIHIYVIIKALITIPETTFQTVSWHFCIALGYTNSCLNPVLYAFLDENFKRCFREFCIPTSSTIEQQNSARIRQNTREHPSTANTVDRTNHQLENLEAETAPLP

Experiments:
C57BL/6 mice = experiment: Nociception (analgesia) testing on 54 C hotplate; format: in vivo; settings: Mus musculus, sc, read-out: ED50, hotplate, systemic administration s.c.
Description: Experiments were performed under the guidelines of the Australian code of practice for the care and use of animals for scientific purposes (National Health and Medical Research Council, Australia, 7th Edition). Great care was taken to minimise animal suffering during these experiments and to reduce the number of animals used. […] Food and water was available ad libitum. Mice were given at least 7 days to habituate to housing facilities prior to handling, and handled by the experimenter for 4 days prior to testing. […] The experimenter was blind to all drugs tested. Animals were tested on a 54° C. hotplate, with a maximum cut-off time of 20 seconds to prevent tissue damage. Endpoints were hindpaw lick, hindpaw flutter or jump. […] The percentage of maximal possible effects (% MPE) were calculated as follows: % MPE=(test latency−baseline latency)/(cutoff latency−baseline latency)×100%. The cut-off latency was 20 seconds. Significant differences were assessed with a two-way ANOVA and Tukey's post hoc multiple comparisons test. […] Doses were transformed to the logarithm of μmol/kg. A two-way ANOVA was used to compare data at equimolar doses.

mouse MOPr (mMOPr) = molecular target: T1, mouse MOPr (mMOPr) (Mus musculus, UniProt P42866); format: cell-based
T1 construct: expressed in transfected cells

MOPr = MOPr (Mus musculus, UniProt P42866); experiment: MOPr internalisation (endocytosis assay) in AtT20 cells; format: cell-based; parameters: expressed in transfected cells
Description: Imaging parameters including laser intensity, photomultiplier tube (PMT) voltage and offset remained constant for each experiment. Mean fluorescence intensity was measured using ImageJ software to calculate mean gray value of an area defined […] a single cell. Each experiment was normalized to the mean of untreated cells as 0% and the mean of cells treated with saturating concentrations of Met-enk (30 μM) as 100%.
MOPr internalisation was assessed immunocytochemically after 30 minutes of agonist treatment (FIGS. 8, 9). […] Endocytosis assay: Receptor internalization was quantified using a ratiometric staining of membrane and internalized receptors. […] Cells were then incubated for an additional 30 min with indicated agonist at 37° C. To unbind the M1 anti-FLAG antibody from the surface receptors, cells were quickly washed three times with ice-cold PBS lacking Mg^2+ and Ca^2+ and supplemented with 0.04% EDTA (pH 7.4).

CN1CC[C@]23c4c5ccc(O)c4O[C@H]2[C@@H](O)C=C[C@H]3[C@H]1C5 [morphine, reference compound]
ED50 (C57BL/6 mice): 27 µmol/kg

COc1ccsc1CNCC[C@@]1(c2ccccn2)CCOC2(CCCC2)C1 [oliceridine]
GIRK (80% knockdown) log(EC50) (mouse MOPr (mMOPr); AtT20 mMOPr cells after β-CNA): −7.6 ± 0.06
GIRK (80% knockdown) KA (mouse MOPr (mMOPr); operational model fit): −7.3 ± 0.09

met-enkephalin
Internalisation log(tau/KA) (MOPr): 6.1 ± 0.03
